Measurements published in patent publication US20080269347A1, “EPINEPHRINE FORMULATIONS” (Azopharma, Inc., priority 2006, published 2008).

## EDTA
0 h
  stability of the formulation (epinephrine remaining): 100
168 h
  stability of the formulation (epinephrine remaining): 98.9
336 h
  stability of the formulation (epinephrine remaining): 99.3
672 h
  stability of the formulation (epinephrine remaining): 96.5

Read-outs that look alike come from different tables or passages of the source.
